For one compound, EC50 results are on record in patent US10259823B2, “GLP-1 receptor modulators” (Celgene International II SÀRL, priority 2013, dated 2019).

Amino acid sequences for entries named in this document (tags omitted). Residues count along the entry.
UniProt P43220, 24-463 limits assumed: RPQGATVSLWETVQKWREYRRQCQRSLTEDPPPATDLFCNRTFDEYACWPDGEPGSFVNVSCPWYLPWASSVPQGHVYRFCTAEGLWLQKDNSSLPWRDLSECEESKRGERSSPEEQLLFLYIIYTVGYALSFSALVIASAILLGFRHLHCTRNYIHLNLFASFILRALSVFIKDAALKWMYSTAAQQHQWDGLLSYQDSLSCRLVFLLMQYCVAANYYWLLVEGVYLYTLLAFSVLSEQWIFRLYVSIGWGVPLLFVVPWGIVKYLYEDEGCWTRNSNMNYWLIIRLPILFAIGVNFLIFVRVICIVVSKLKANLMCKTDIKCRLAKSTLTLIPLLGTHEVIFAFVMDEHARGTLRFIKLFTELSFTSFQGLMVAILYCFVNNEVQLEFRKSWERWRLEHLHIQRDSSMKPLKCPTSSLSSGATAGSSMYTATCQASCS
UniProt P01275, 100-127 partner limits assumed: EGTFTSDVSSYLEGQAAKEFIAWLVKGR

The target of this assay is GLP-1R (Homo sapiens, UniProt P43220). In words: EC20 GLP-1(9-36) PAM cAMP assay: dose response of compound in the presence of fixed concentration of GLP-1(9-36). The note with it: read-out: EC20 GLP-1(9-36) PAM EC50, GLP-1R CRE-bla CHO-K1 cells, compound dose response with fixed GLP-1(9-36), 30 min at 37° C. The protocol: EC20 GLP-1(9-36) PAM cAMP assay: dose response of compound in the presence of fixed concentration of GLP-1 (9-36).
GLP-1R CRE-bla CHO-K1 cells cultured in growth medium (DMEM-High glucose, 10% dialyzed FBS, 0.1 mM NEAA, 25 mM Hepes, 100 U/mL penicillin/100 μg/mL streptomycin, 5 μg/mL Blasticidin, 600 μg/mL Hygromycin) were trypsinized and plated in suspension into 384 well white flat bottom plates at 5000 cells/well in 12 μL assay buffer (Hanks Balanced Salt solution, 10 mM hepes, 0.1% BSA, pH 7.4). A 5× compound dose response curve (12-point) was generated in assay buffer containing 1.5 mM IBMX, 4% DMSO. GLP-1(9-36) was diluted to 4.2 μM in assay buffer containing 1.5 mM IMBX and 4% DMSO. The 5× compound dose response was added (3 μL), followed by 0.5 μL of GLP-1(9-36) and cells were incubated for 30 min at 37° C. Direct detection of cAMP was carried out using DiscoveRx HitHunter cAMP kit according to manufacturer's instructions and luminescence was read using a SpectraMax M5 plate reader. Luminescence was converted to total cAMP using a cAMP standard curve and data was analyzed by non-linear regression to determine the EC50 and Emax.
GLP-1(7-36): […]-NH2 (SEQ ID NO: GLP-1(9-36): […]-NH2(SEQ ID NO: 3) GLP-1(7-36) was purchased from GenScript. GLP-1(9-36) was purchased from Biopeptide Co., Inc.
A general note: Changes in cAMP serve as a functional read-out for many G protein-coupled receptors.

Broadly, the EC50 is the concentration that produces a half-maximal response. With `CC(C)(C)c1ccc(C(=O)N[C@@H](Cc2ccc(-c3ncc(-c4ccc5c(c4)CCCN5)cn3)cc2)C(=O)O)cc1`, the EC50 is 5 to 10 µM.
